Our source for the -Delta G values is ChEMBL document CHEMBL1124120, “Mapping of the beta 2-adrenoceptor on Chang liver cells. Differences between high- and low-affinity receptor states” (J Med Chem, 1988).

Chains of the proteins cited; added tags and fusions are not shown.
UniProt Q28044, whole entry, looked up: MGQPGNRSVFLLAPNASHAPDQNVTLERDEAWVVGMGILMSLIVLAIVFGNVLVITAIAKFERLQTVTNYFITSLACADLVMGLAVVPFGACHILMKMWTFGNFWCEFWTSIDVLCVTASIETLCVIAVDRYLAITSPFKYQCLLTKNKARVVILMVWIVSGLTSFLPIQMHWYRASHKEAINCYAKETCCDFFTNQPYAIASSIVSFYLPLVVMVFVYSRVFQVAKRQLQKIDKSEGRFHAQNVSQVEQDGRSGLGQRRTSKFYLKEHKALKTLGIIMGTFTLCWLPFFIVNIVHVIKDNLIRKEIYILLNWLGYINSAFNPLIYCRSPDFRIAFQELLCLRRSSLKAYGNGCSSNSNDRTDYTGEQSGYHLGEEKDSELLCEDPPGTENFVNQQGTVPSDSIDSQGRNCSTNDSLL

The target of assay [1] is Beta-2 adrenergic receptor (Homo sapiens) (UniProt P07550).
Assay [2] concerns the target Beta-2 adrenergic receptor (Bos taurus) (UniProt Q28044). The conditions noted are these: Muscle tissue.
The target in assay [3] is Beta-2 adrenergic receptor (Homo sapiens) (UniProt P07550). This is another data set of the same source.

SMILES strings stand for the structures.

With `CC(C)NCC(O)c1ccc(O)cc1` (racemic), in assay [1], the -Delta G was determined as 8.07.

As to `CC(C)NCC(O)c1ccc(O)c(CO)c1` (racemic), in assay [2], the -Delta G was found to be 8.23.

`CC(C)(C)NCC(O)c1ccccc1Cl` (centres undefined) had a -Delta G in assay [3] of 10.8. Regarding `CC(C)NCC(O)c1cccc(O)c1` (racemic), the -Delta G in assay [3] came out at 8.57.
